Experimental data published in patent US9802960B2 (MILLENNIUM PHARMACEUTICALS, INC., priority 2014, dated 2017).

Sequences of proteins named here, by UniProt entry; tags and fusion partners are left off.
UniProt Q8NEB9, whole entry: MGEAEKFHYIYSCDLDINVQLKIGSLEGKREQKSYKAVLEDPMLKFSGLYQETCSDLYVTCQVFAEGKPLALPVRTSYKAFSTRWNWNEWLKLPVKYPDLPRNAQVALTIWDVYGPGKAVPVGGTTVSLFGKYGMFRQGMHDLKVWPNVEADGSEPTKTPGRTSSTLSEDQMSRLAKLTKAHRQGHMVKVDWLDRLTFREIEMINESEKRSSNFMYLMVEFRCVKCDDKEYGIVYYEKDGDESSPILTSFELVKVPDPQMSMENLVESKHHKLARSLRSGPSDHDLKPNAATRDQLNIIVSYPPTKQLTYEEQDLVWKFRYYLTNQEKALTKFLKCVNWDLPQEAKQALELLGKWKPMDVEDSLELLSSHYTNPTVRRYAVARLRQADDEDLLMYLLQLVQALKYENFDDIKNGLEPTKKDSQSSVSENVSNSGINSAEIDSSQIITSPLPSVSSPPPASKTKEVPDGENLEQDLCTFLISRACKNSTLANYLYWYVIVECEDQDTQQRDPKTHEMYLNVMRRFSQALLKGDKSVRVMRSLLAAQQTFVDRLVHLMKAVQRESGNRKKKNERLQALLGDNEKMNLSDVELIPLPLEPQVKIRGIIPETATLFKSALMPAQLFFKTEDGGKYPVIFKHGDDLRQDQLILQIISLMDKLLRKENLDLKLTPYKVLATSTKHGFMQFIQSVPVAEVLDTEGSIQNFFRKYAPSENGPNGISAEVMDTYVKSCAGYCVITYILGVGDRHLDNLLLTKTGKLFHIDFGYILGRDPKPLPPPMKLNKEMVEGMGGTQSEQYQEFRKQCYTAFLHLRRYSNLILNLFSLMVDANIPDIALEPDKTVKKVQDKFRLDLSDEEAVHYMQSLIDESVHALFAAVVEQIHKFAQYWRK

Target: Human VPS34 (Homo sapiens (Human), UniProt Q8NEB9)
Experiment: Human VPS34 enzyme assay (Adapta TR-FRET)
Assay type: biochemical
Details: read-out: Percent Inhibition

With `Cc1nccc(Nc2cc(-c3cc(NS(=O)(=O)N(C)C)c4ccnn4c3)ccn2)n1` [Compound I-421, N,N-dimethyl-N′-(6-{2-[(2-methylpyrimidin-4-yl)amino]pyridin-4-yl}pyrazolo[1,5-a]pyridin-4-yl)sulfuric diamide] as the compound, how does the inhibition at 1.11 µM read?
The inhibition at 1.11 µM was 90%.
